Experimental data reported in publication PMC5651862 (Scientific Reports, 2017).

Amino acid sequences for entries named in this document (tags omitted). Residues count along the entry.
UniProt P37231, 29-505: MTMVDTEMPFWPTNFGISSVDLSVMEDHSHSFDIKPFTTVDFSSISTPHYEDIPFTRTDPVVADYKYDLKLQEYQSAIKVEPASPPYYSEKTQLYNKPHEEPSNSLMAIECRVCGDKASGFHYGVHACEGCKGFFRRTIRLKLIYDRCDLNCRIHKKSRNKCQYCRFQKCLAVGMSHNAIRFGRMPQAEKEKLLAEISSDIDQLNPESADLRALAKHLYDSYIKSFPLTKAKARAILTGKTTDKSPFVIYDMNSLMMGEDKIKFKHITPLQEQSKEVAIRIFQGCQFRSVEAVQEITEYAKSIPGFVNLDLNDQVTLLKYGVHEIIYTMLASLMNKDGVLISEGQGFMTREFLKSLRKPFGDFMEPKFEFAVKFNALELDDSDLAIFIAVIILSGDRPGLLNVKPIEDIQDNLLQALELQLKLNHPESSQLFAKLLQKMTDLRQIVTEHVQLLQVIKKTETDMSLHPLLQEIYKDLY

Target: full-length human PPARγ (Homo sapiens, UniProt P37231)

Structure (SMILES): C=CCc1ccc(O)c(-c2cc(CC=C)ccc2O)c1 [magnolol, reference compound]
- Emax PPARγ-dependent luciferase transactivation (HEK293, 18 h, Emax values ± SD, results as fold induction vs DMSO): 4.63 ± 0.55
- efficacy compared to pioglitazone (HEK293, Emax relative to full agonist pioglitazone): around 62%
